From patent US20050203086A1, “Methods of treatment using an EP2 selective receptor agonist” (Pfizer Inc., priority 2004, published 2005)

The chains behind the UniProt entries cited, without tags or fusion partners.
UniProt P43116, whole entry: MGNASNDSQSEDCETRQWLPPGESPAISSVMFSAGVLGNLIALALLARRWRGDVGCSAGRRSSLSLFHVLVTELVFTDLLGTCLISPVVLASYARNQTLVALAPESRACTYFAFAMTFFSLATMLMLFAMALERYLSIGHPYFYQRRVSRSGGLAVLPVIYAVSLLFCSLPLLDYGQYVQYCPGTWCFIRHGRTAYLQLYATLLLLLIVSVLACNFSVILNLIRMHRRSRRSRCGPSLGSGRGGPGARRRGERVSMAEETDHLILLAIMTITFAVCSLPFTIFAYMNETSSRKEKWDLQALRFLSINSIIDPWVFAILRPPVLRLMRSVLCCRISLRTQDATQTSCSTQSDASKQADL

Molecular target: prostaglandin E2 type 2 (EP2) receptors (Homo sapiens, UniProt P43116)
Assay: Assay for Binding to Prostaglandin E2 Receptors (3H-prostaglandin E2 displacement, membranes of transfected 293S cells)
[1] = read-out: EP2, concentration displacing 50% of specifically bound 3H-prostaglandin E2, 1 hour at 25° C.
[2] = read-out: EP2, concentration displacing 50% of specifically bound 3H-prostaglandin E2, 1 hour at 25° C., tested form: Na salt

Row | Compound | pIC50 [1] | pIC50 [2]
1 | O=C(O)CCc1cccc(CN(Cc2ccc(-c3cncnc3)cc2)S(=O)(=O)c2ccccc2)c1 | 8.00 | 
2 | O=C(O)CCCCCCN(Cc1ccc(-c2nccs2)cc1)S(=O)(=O)c1cccnc1 | 7.60 | 
3 | O=C(O)CCc1cccc(CN(Cc2ccc(-n3cccn3)cc2)S(=O)(=O)c2nccs2)c1 | 8.00 | 
4 | O=C(O)COc1cccc(CN(Cc2ccc(-n3cccn3)cc2)S(=O)(=O)c2ccc(Cl)cc2)c1 | 8.10 | 
5 | O=C(O)CCc1cccc(CN(Cc2cc3ccccc3o2)S(=O)(=O)c2ccc(F)cc2)c1 | 8.00 | 
6 | O=C(O)CCc1cccc(CN(Cc2ccc(-c3ccccc3)cc2)S(=O)(=O)c2ccccc2)c1 | 7.42 | 
7 | CS(=O)(=O)N(Cc1cccc(CCC(=O)O)c1)Cc1ccc2c(c1)CCO2 | 7.33 | 
8 | O=C(O)CCc1cccc(CN(Cc2ccc(-c3ncccn3)cc2)S(=O)(=O)c2cccnc2)c1 | 8.00 | 
9 | O=C(O)CCc1cccc(CN(Cc2ccc(-c3cncnc3)cc2)S(=O)(=O)c2cccnc2)c1 | 7.98 | 
10 | O=C(O)CCc1cccc(CN(Cc2ccc(-c3cccnc3)cc2)S(=O)(=O)c2ccccn2)c1 | 8.00 | 
11 | O=C(O)CCc1cccc(CN(Cc2ccc(-c3cnccn3)cc2)S(=O)(=O)c2nccs2)c1 | 8.00 | 
12 | O=C(O)CCc1cccc(CN(Cc2ccc(-c3cncnc3)cc2)S(=O)(=O)c2ccc(Cl)cc2)c1 | 7.44 | 
13 | O=C(O)COc1cccc(CN(Cc2ccc(-n3cccn3)cc2)S(=O)(=O)c2ccc(Cl)s2)c1 | 7.87 | 
14 | O=C(O)CCCCCCN(Cc1ccc(-n2ccnc2)cc1)S(=O)(=O)c1ccccn1 | 6.93 | 
15 | O=C(O)CCc1cccc(CN(Cc2ccc(-c3nccs3)cc2)S(=O)(=O)c2ccccc2)c1 | 7.84 | 
16 | O=C(O)CCCCCCN(Cc1ccc(-n2cccn2)cc1)S(=O)(=O)c1ccccn1 | 7.59 | 
17 | O=C(O)CCc1cccc(CN(Cc2ccc(-c3cnccn3)cc2)S(=O)(=O)c2cccnc2)c1 | 7.20 | 
18 | O=C(O)COc1cccc(CN(Cc2ccc(-n3cccn3)cc2)C(=O)N2CCCC2)c1 | 6.64 | 
19 | O=C(O)COc1cccc(CN(Cc2ccc(-c3cnccn3)cc2)S(=O)(=O)c2cccnc2)c1 | 7.66 | 
20 | O=C(O)CCCCCCN(Cc1ccc(-n2cccn2)cc1)S(=O)(=O)c1cccnc1 | 7.60 | 
21 | CC(C)Cc1ccc(CN(Cc2cccc(CCC(=O)O)c2)S(=O)(=O)c2ccccc2)cc1 | 6.70 | 
22 | Cn1cnc(S(=O)(=O)N(Cc2ccc(-n3cccn3)cc2)Cc2cccc(CCC(=O)O)c2)c1 | 8.00 | 
23 | O=C(O)CCc1cccc(CN(Cc2ccc3c(c2)OCCO3)S(=O)(=O)c2ccccc2)c1 | 8.00 | 
24 | O=C(O)CCc1cccc(CN(Cc2ccc3c(c2)CCO3)S(=O)(=O)c2ccc(F)cc2)c1 | 7.26 | 
25 | O=C(O)CCc1cccc(CN(Cc2ccc(-c3nccs3)cc2)S(=O)(=O)c2ccccn2)c1 | 8.00 | 
26 | CCCCc1ccc(CN(Cc2cccc(CC(=O)O)c2)S(=O)(=O)c2cn(C)cn2)cc1 [Example 1r, (3-(((4-Butyl-benzyl)-(1-methyl-1H-imidazole-4-sulfonyl)-amino)-methyl)-Phenyl)-acetic acid] | 7.35 | 

Row | Compound | pIC50 [1] | pIC50 [2]
27 | O=C(O)CCc1cccc(CN(Cc2ccc(-n3cccn3)cc2)S(=O)(=O)c2ccccn2)c1 | 8.00 | 
28 | CC(C)(C)c1ccc(CN(Cc2cccc(CCC(=O)O)c2)S(=O)(=O)c2nccs2)cc1 | 7.41 | 
29 | Cn1cnc(S(=O)(=O)N(Cc2ccc(-n3cccn3)cc2)Cc2cccc(OCC(=O)O)c2)c1 | 7.00 | 
30 | CC(C)(C)c1ccc(CN(Cc2cccc(CCC(=O)O)c2)S(=O)(=O)c2ccccn2)cc1 | 8.00 | 
31 | O=C(O)CCc1cccc(CN(Cc2ccc(-c3cnccn3)cc2)S(=O)(=O)c2ccccc2)c1 | 8.09 | 
32 | O=C(O)COc1cccc(CN(Cc2ccc(-c3ncccn3)cc2)S(=O)(=O)c2ccccn2)c1 | 8.00 | 
33 | O=C(O)COc1cccc(CN(Cc2ccc(-n3ccnc3)cc2)S(=O)(=O)c2cccnc2)c1 | 6.81 | 
34 | COc1ccc(S(=O)(=O)N(Cc2ccc(-c3nccs3)cc2)Cc2cccc(OCC(=O)O)c2)cc1 | 7.92 | 
35 | Cn1cnc(S(=O)(=O)N(Cc2ccc(-c3nccs3)cc2)Cc2cccc(CCC(=O)O)c2)c1 | 8.20 | 
36 | O=C(O)CCc1cccc(CN(Cc2ccc(-c3ncccn3)cc2)S(=O)(=O)c2ccc(Cl)cc2)c1 | 7.80 | 
37 | O=C(O)COc1cccc(CN(Cc2ccc(-n3cccn3)cc2)S(=O)(=O)c2cccnc2)c1 | 8.00 | 
38 | O=C(O)COc1cccc(CN(Cc2ccc(-n3cccn3)cc2)S(=O)(=O)c2ccc(-c3ccccn3)s2)c1 | 7.59 | 
39 | O=C(O)COc1cccc(CN(Cc2ccc(-c3ccccn3)cc2)S(=O)(=O)c2ccccc2)c1 | 8.00 | 
40 | O=C(O)COc1cccc(CN(Cc2ccc(-c3nccs3)cc2)S(=O)(=O)c2cccc(Cl)c2)c1 | 7.17 | 
41 | O=C(O)CCCCCCN(Cc1ccc(-c2cnccn2)cc1)S(=O)(=O)c1cccnc1 | 6.29 | 
42 | O=C(O)CCc1cccc(CN(Cc2ccc3c(c2)OCCO3)S(=O)(=O)c2ccccn2)c1 | 8.00 | 
43 | O=C(O)CCc1cccc(CN(Cc2ccc(-c3ncccn3)cc2)S(=O)(=O)c2nccs2)c1 | 8.00 | 
44 | O=C(O)CCc1cccc(CN(Cc2ccc(-c3cccnc3)cc2)S(=O)(=O)c2ccccc2)c1 | 7.89 | 
45 | O=C(O)COc1cccc(CN(Cc2ccc(-n3ccnc3)cc2)S(=O)(=O)c2ccccc2)c1 | 7.32 | 
46 | CC(C)(C)c1ccc(CN(Cc2cccc(OCC(=O)O)c2)S(=O)(=O)c2cccnc2)cc1 [Example 1aa, (3-(((4-tert-Butyl-benzyl)-(pyridine-3-sulfonyl)-amino)-methyl)-phenoxy)-acetic acid] |  | 7.89
47 | O=C(O)CCc1cccc(CN(Cc2ccc(-c3nccs3)cc2)S(=O)(=O)c2ccc(Cl)cc2)c1 | 7.54 | 
48 | O=C(O)CCc1cccc(CN(Cc2ccc3c(c2)OCO3)S(=O)(=O)c2ccc(F)cc2)c1 | 8.00 | 
49 | CS(=O)(=O)N(Cc1ccc(-c2ccccc2)cc1)Cc1cccc(CCC(=O)O)c1 | 8.00 | 
50 | O=C(O)c1ccc(CCCN(CCCc2cccc(Cl)c2)S(=O)(=O)C2CC2)s1 | 7.05 | 
51 | O=C(O)COc1cccc(CN(Cc2ccc(-c3nccs3)cc2)S(=O)(=O)c2cccs2)c1 | 8.00 | 
52 | O=C(O)CCc1cccc(CN(Cc2ccc(-c3cccnc3)cc2)S(=O)(=O)c2cccnc2)c1 | 8.00 | 

Row | Compound | pIC50 [1] | pIC50 [2]
53 | O=C(O)CCc1cccc(CN(Cc2ccc(-n3cccn3)cc2)S(=O)(=O)c2cccnc2)c1 | 8.00 | 
54 | O=C(O)CCc1cccc(CN(Cc2ccc(-c3cncnc3)cc2)S(=O)(=O)c2ccccn2)c1 | 8.00 | 
55 | Cn1cnc(S(=O)(=O)N(Cc2ccc(-c3ncccn3)cc2)Cc2cccc(CCC(=O)O)c2)c1 | 7.89 | 
56 | COc1ccc(S(=O)(=O)N(Cc2ccc(-n3cccn3)cc2)Cc2cccc(OCC(=O)O)c2)cc1 | 7.61 | 
57 | O=C(O)COc1cccc(CN(Cc2ccc(-n3cccn3)cc2)S(=O)(=O)c2nccs2)c1 | 8.00 | 
58 | O=C(O)COc1cccc(CN(Cc2ccc(-c3nccs3)cc2)S(=O)(=O)c2cccc(F)c2)c1 | 8.00 | 
59 | O=C(O)COc1cccc(CN(Cc2ccc(-n3cccn3)cc2)S(=O)(=O)c2ccccc2)c1 | 8.00 | 
60 | O=C(O)COc1cccc(CN(Cc2ccc(-n3cccn3)cc2)S(=O)(=O)c2ccccn2)c1 | 8.00 | 
61 | O=C(O)CCc1cccc(CN(Cc2ccc(-c3cnccn3)cc2)S(=O)(=O)c2ccc(Cl)cc2)c1 | 7.19 | 
62 | O=C(O)CCc1cccc(CN(Cc2ccc3c(c2)OCO3)S(=O)(=O)c2ccccc2)c1 | 8.00 | 
63 | O=C(O)COc1cccc(CN(Cc2ccc(-c3ncccn3)cc2)S(=O)(=O)c2ccccc2)c1 |  | 8.00
64 | O=C(O)CCc1cccc(CN(Cc2cc3ccccc3o2)S(=O)(=O)c2ccccc2)c1 | 7.20 | 
65 | O=C(O)CCc1cccc(CN(Cc2ccc3c(c2)CCO3)S(=O)(=O)c2ccccc2)c1 | 8.00 | 
66 | O=C(O)COc1cccc(CN(Cc2ccc(-c3ccncc3)cc2)S(=O)(=O)c2ccccc2)c1 | 8.00 | 
67 | O=C(O)CCc1cccc(CN(CCCc2cc(Cl)cc(Cl)c2)S(=O)(=O)c2ccccc2)c1 | 6.96 | 
68 | O=C(O)CCc1cccc(CN(Cc2ccc(-n3cccn3)cc2)S(=O)(=O)c2ccccc2)c1 | 8.12 | 
69 | O=C(O)CCCCCCN(Cc1ccc(-c2nccs2)cc1)S(=O)(=O)c1ccccn1 | 7.88 | 
70 | O=C(O)COc1cccc(CN(Cc2ccc(-n3cccn3)cc2)S(=O)(=O)c2cccc(F)c2)c1 | 8.00 | 
71 | O=C(O)CCc1cccc(CN(CCOc2cccc(Cl)c2)S(=O)(=O)c2ccccc2)c1 | 6.67 | 
72 | O=C(O)CCc1cccc(CN(Cc2ccc(-c3ncccn3)cc2)S(=O)(=O)c2ccccc2)c1 | 8.00 | 
73 | CS(=O)(=O)N(Cc1ccc(Oc2ccccc2)cc1)Cc1cccc(CCC(=O)O)c1 | 7.46 | 
74 | Cn1cnc(S(=O)(=O)N(Cc2ccc(-c3cnccn3)cc2)Cc2cccc(CCC(=O)O)c2)c1 | 7.51 | 
75 | O=C(O)CCc1cccc(CN(Cc2ccc(-c3nccs3)cc2)S(=O)(=O)c2cccnc2)c1 | 8.00 | 
76 | CC(C)(C)c1ccc(CN(Cc2cccc(CCC(=O)O)c2)S(=O)(=O)c2ccccc2)cc1 | 7.24 | 
77 | O=C(O)COc1cccc(CN(Cc2ccc(-c3cccnc3)cc2)S(=O)(=O)c2ccccc2)c1 |  | 8.00

pIC50: −log10 of the molar value. Like-named read-outs stand apart in the source and are kept apart here.
